Only a part is listed here, and it is no random draw. Active and inactive are the calls of the source. No stated cut-off is given here; in the data, active means inhibition above about 28%; inactive means the rest.
Assay: StAR promoter reporter inhibitors, counter-screen for LRH-1 inverse agonist project, cell-based, luminescence, high throughput (AID 651611)
Settings: StAR promoter luciferase reporter counterscreen, at 3.6 µM, active compounds read high

O=[N+]([O-])c1cc([N+](=O)[O-])c(-c2cnn(-c3ccccc3)c2)c([N+](=O)[O-])c1
inhibition: inactive: 15.1%

— PubChem BioAssay
